{"source": "ChEMBL document CHEMBL1122024", "about": "“Quantitative structure-inhibitory activity relationships of phenols and fatty acids for Bacillus subtilis spore germination” (J Med Chem, 1982)", "assay": "Dissociation constant (pKa)", "data": [{"smiles": "O=[N+]([O-])c1ccc([N+](=O)[O-])c(O)c1", "values": [{"measurement": "pKa", "result": 4.1}]}]}
